From US20250270222A1, “AP2 ASSOCIATED KINASE 1 INHIBITORS AND USES THEREOF” (Satellos Bioscience Inc., priority 2023, published 2025)

Chains of the proteins cited; added tags and fusions are not shown. Residues count along the entry.
UniProt Q9NSY1, 38-345 K320A/K321A: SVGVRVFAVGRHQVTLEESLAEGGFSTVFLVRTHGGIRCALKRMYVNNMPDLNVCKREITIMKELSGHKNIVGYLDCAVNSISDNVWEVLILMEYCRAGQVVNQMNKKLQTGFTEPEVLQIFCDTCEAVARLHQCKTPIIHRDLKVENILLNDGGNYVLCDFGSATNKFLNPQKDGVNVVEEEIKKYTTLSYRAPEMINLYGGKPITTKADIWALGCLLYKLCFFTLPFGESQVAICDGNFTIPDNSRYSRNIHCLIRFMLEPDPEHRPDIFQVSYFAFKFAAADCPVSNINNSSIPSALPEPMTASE

Biological target: BIKE (amino acids S38-E345) (K320A, K321A) (Homo sapiens (Human), UniProt Q9NSY1, K320A/K321A)
Assay: BIKE pSENs assay
Format: biochemical
Procedure: The recombinant proteins were independently expressed in Esherichia coli BL21(DE3) cells cultured in Luria-Bertani (LB) medium until OD600 reached 0.6-0.8, then cooled to 15° C., and supplemented with 0.5 mM isopropyl 1-thio-D-galactopyranoside (IPTG) induce protein expression 16 h. Cells were harvested and resuspended in lysis buffer (50 mM HEPES pH 7.5, 500 mM NaCl, 5 mM imidazole, 5% glycerol, 0.5 mM Tris (2-carboxyethyl) phosphine (TCEP), cOmplete Protease Inhibitor Tablet (Roche)) and lysed by microfluidics high pressure homogenizer (UH-06, Union-Biotech). Proteins were purified using Ni-Affinity chromatography (His FF column, Bestchrom) and eluted stepwise in binding buffer with 20-300 mM imidazole. Removal of the hexahistidine tag was performed at 4° C. overnight using recombinant TEV protease and reacted with BirA to obtain the corresponding biotinylated-AAK1. BIKE or GAK proteins. Further separated in the reverse Strep column (Strep-Tactin® XT, IBA). The Biotin elution sample was collected containing untagged biotinylated protein was then purified by Ion-exchange chromatography (Mono Q 10/100 GL, Cytiva) and Size-exclusion chromatography (HiLoad 16/600 Superdex 200 pg, Cytiva). The pure protein was stored in a storage buffer 50 mM HEPES (pH 7.5), 300 mM NaCl, 5% glycerol at −80° C. Protein were characterized by SDS-PAGE. LC-MS and aSEC. […]

How did the IC50 turn out when `NC(=O)CN1C[C@H](OC(=O)N2CCN(c3ccn4ncc(-c5cccnc5OC5CC5)c4n3)CC2)CC1=O` [Compound I-29, [(3R)-1-(2-Amino-2-oxo-ethyl)-5-oxo-pyrrolidin-3-yl]4-[3-[2-(cyclopropoxy)-3-pyridyl]pyrazolo[1,5-a]pyrimidin-5-yl]piperazine-1-carboxylate] was run?
Its IC50 is greater than 1500 nM.
